Experimental data as given in US12187719B2, “Proteolysis targeting chimera (PROTACS) as degraders of SMARCA2 and /or SMARCA4” (Boehringer Ingelheim International GmbH, priority 2018, dated 2025).

The chains behind the UniProt entries cited, without tags or fusion partners.
UniProt P51532, whole entry: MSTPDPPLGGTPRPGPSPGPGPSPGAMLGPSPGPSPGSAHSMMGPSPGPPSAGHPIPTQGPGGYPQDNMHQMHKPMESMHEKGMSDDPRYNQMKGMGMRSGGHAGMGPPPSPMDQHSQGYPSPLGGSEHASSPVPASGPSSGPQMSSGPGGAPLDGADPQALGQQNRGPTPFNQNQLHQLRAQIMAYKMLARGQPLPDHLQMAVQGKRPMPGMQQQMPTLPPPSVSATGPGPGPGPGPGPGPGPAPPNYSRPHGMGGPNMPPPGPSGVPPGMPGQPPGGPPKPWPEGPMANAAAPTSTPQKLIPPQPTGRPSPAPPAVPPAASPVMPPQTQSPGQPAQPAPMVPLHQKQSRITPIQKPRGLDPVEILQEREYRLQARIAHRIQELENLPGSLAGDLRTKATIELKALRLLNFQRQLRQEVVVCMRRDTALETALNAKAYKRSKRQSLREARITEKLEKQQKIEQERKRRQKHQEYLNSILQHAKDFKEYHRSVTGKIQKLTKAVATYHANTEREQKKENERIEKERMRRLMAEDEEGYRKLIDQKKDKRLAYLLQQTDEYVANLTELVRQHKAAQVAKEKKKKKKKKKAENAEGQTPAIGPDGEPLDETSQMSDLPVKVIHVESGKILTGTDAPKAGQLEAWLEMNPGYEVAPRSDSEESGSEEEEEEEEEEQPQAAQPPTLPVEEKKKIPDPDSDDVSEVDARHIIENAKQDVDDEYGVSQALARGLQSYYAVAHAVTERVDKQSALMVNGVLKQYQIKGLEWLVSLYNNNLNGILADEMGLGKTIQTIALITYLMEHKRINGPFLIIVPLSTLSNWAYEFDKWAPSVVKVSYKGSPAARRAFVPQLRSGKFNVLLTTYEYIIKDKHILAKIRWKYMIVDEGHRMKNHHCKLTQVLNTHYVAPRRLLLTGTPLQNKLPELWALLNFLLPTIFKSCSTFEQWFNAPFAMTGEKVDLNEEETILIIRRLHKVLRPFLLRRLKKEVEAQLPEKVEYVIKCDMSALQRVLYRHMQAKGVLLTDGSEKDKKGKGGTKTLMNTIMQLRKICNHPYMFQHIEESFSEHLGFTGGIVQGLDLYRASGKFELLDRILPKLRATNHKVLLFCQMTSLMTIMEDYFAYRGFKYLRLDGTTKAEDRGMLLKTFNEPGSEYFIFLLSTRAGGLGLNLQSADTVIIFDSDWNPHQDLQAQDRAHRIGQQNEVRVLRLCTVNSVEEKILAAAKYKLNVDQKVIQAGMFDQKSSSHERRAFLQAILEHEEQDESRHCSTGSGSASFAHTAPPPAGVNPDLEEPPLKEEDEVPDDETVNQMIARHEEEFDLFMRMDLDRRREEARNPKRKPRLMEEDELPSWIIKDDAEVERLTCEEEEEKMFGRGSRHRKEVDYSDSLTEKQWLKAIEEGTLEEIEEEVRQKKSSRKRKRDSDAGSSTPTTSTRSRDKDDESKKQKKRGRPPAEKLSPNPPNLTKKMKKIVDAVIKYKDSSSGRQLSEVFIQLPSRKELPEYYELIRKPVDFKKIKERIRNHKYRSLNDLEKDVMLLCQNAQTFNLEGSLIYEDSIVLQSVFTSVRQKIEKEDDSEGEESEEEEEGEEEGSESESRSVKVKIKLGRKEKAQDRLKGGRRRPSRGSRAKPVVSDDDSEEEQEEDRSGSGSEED
UniProt P51531, whole entry: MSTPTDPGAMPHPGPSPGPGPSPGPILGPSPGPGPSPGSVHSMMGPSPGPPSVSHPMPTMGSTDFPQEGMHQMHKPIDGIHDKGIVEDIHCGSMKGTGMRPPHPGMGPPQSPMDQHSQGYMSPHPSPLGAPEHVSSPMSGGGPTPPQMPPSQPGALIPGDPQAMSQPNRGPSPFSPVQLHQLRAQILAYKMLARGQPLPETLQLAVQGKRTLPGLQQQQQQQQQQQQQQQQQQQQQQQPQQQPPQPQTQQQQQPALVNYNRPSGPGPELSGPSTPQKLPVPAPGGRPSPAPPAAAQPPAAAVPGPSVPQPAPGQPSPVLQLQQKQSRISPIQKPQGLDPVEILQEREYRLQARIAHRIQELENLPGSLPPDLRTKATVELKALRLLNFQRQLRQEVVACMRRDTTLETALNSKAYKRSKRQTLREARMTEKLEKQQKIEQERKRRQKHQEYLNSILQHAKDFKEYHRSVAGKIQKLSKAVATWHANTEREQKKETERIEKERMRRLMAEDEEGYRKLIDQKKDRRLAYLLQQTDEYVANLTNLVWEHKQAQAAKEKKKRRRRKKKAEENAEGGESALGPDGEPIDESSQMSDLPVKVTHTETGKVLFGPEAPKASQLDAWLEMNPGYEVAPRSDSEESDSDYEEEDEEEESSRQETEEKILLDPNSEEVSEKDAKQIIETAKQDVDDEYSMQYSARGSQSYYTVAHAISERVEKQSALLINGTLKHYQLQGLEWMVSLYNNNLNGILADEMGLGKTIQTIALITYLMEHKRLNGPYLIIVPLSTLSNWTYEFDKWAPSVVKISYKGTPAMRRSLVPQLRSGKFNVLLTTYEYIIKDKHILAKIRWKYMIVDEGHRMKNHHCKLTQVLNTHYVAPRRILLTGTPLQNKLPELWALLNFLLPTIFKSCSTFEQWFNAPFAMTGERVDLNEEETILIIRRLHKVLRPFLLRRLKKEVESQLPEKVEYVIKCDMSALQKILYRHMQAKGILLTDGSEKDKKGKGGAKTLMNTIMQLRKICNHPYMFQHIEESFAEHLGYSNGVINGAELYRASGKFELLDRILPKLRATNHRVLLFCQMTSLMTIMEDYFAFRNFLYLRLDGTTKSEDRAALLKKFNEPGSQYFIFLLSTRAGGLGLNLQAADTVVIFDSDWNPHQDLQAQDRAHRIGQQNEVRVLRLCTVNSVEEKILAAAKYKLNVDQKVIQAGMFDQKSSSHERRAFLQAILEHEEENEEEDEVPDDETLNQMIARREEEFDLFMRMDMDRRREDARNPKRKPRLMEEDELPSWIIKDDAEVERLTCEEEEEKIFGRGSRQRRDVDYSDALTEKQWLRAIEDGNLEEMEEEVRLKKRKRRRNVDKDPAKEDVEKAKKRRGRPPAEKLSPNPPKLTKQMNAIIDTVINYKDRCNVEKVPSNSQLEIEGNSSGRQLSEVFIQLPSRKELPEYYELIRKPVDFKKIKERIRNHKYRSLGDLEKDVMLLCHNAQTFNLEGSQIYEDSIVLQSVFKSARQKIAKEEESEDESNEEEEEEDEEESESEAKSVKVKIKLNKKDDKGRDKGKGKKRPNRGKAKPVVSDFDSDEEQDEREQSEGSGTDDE

What was measured:
[1] = molecular target: SMARCA4 (Homo sapiens, UniProt P51532); test: Protein degradation assay in A549 cells, SMARCA4 levels by WES capillary electrophoresis; conditions: A549 (NSCLC) cells with SMARCA4 mutation corrected to wild type, 18 h incubation; for Dmax SMARCA4: maximal amount of degraded protein relative to initial levels; for DC50: read-out: DC50 SMARCA4, concentration at which half maximal degradation is achieved, normalised to GAPDH
[2] = molecular target: SMARCA2 (Homo sapiens, UniProt P51531); test: Protein degradation assay in A549 cells, SMARCA2 levels by WES capillary electrophoresis; conditions: A549 (NSCLC) cells with SMARCA4 mutation corrected to wild type, 18 h incubation; for Dmax SMARCA2: maximal amount of degraded protein relative to initial levels; for DC50: read-out: DC50 SMARCA2, concentration at which half maximal degradation is achieved, normalised to GAPDH

Row | Dmax SMARCA4 [1] [%] | DC50 [1] [nM] | Dmax SMARCA2 [2] [%] | DC50 [2] [nM] | Structure (SMILES)
1 | 100 | 78 | 87 | 118 | Cc1ncsc1-c1ccc(CNC(=O)[C@@H]2C[C@@H](O)CN2C(=O)[C@@H](NC(=O)C2(F)CC2)C(C)(C)C)c(OCC(C)c2ccc(CN3CCN(c4cc(-c5ccccc5O)nnc4N)CC3)cc2)c1 (stereo partly drawn)
2 | 90 | 168 | 92 | 84 | Cc1ncsc1-c1ccc(CNC(=O)[C@@H]2C[C@@H](O)CN2C(=O)[C@@H](NC(=O)C2(F)CC2)C(C)(C)C)c(OCCc2ccc(CN3CCN(c4cc(-c5ccccc5O)nnc4N)CC3)cc2F)c1
3 | 95 | 33 | 95 | 55 | Cc1ncsc1-c1ccc(CNC(=O)[C@@H]2C[C@@H](O)CN2C(=O)[C@@H](NC(=O)C2(F)CC2)C(C)(C)C)c(OCCc2ccc(CN3CCN(c4cc(-c5ccccc5O)nnc4N)CC3)c(F)c2)c1
